{
  "source": "patent US10221162B2",
  "about": "“Triazole agonists of the APJ receptor” (priority 2015, dated 2019)",
  "test_system": "naive Sprague Dawley rat hearts",
  "experiment": "Langendorff isolated perfused rat heart (ex vivo contractility and relaxation)",
  "conditions": "Langendorff apparatus, as a function of concentration",
  "data": [
    {"molecule": "COc1cccc(OC)c1-n1c(NS(=O)(=O)[C@@H](C)[C@H](O)c2ncc(C)cn2)nnc1-c1cncc(C)c1", "note": "[Example 371.0, (1R,2S)—N-(4-(2,6-dimethoxyphenyl)-5-(5-methylpyridin-3-yl)-4H-1,2,4-triazol-3-yl)-1-hydroxy-1-(5-methylpyrimidin-2-yl)propane-2-sulfonamide]", "values": [
      {"measurement": "left ventricular dP/dtmax (load independent cardiac contractility)", "value": "increases load independent cardiac contractility"},
      {"measurement": "left ventricular dP/dtmin (load independent cardiac relaxation)", "value": "increases load independent cardiac relaxation"}
    ]}
  ]
}
